Data as given in patent publication US11161864B2, “Sting agonists” (Venenum Biodesign, LLC, priority 2018, dated 2021).

By UniProt entry, the sequences of proteins in these tests, tags left out. Residues count along the entry.
UniProt Q86WV6, 155-379 G230A/H232R/R293Q: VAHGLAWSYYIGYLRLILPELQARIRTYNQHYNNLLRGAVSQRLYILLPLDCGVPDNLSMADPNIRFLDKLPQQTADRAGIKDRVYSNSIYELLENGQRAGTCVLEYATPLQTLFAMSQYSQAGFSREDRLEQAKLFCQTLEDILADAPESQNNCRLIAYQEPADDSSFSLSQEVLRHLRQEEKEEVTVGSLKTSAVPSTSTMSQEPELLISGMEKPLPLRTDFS
UniProt Q86WV6, 155-379 H232R: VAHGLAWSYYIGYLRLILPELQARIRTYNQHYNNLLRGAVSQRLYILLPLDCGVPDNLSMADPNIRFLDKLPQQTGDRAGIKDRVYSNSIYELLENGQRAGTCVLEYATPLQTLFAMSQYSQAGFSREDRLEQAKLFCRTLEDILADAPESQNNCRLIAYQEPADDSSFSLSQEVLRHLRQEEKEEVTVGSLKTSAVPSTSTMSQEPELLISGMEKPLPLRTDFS
UniProt Q3TBT3, 154-378: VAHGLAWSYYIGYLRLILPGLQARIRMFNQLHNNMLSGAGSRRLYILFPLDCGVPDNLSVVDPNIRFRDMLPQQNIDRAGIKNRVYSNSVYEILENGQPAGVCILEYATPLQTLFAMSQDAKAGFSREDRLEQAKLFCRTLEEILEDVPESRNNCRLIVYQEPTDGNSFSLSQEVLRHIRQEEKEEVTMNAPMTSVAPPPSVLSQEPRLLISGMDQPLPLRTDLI

Assays:
[1] = molecular target: AQ variant of truncated human STING protein, amino acids 155-379 (Homo sapiens (Human), UniProt Q86WV6, G230A/H232R/R293Q); assay: Human AQ STING [3H] 2′,3′-cGAMP scintillation proximity competition binding assay
From the text: (§1) A human STING [^3H] 2′,3′-cGAMP scintillation proximity competition binding assay was utilized to detect binding of compounds to STING protein. […] The protein encoding plasmid contained a HIS tag, followed by an Avi tag and then a SUMO tag, which were followed by the STING coding sequence within the pET-28a (+) vector. The plasmid was transfected into a BL21 (DE3)/BirA E. coli co-expression strain. Protein was purified from the bacterial lysate using a cobalt-affinity column. The purified protein was dialyzed against PBS and then 20% glycerol was added prior to storage at −80° C.
(§2) 2′,3′-cGAMP in assay buffer (50 mM Tris pH 7.5, 100 mM NaCl, 0.1% Fatty Acid Free BSA). Test compounds (2.5 μL) were added to the plate first followed by a 25 μL mixture of STING protein, streptavidin PVT SPA beads (Perkin Elmer) and 10 μL [^3H] 2′,3′-cGAMP. Plates were incubated at room temperature for 18 hrs and read on a Wallac MicroBeta TriLux (Perkin Elmer).

[2] = molecular target: wild-type (WT) truncated human STING protein, amino acids 155-379 (Homo sapiens (Human), UniProt Q86WV6, H232R); assay: Human WT STING [3H] 2′,3′-cGAMP scintillation proximity competition binding assay
From the text: as §1, §2

[3] = molecular target: murine STING protein (amino acids 154-378) (Mus musculus (Mouse), UniProt Q3TBT3); assay: Murine STING [3H] 2′,3′-cGAMP scintillation proximity competition binding assay

| Structure (SMILES) | IC50 [1] [µM] | IC50 [2] [µM] | IC50 [3] [µM] |
| --- | --- | --- | --- |
| N#Cc1cnc2c(c1)nc1n2CCOP(=O)(S)OC[C@H]2O[C@@H](n3cnc4c(=O)[nH]c(N)nc43)[C@H](OP(=O)(S)OC1)[C@@H]2F (single isomer, unassigned) [Example 38D] | < 1 |  |  |
| Nc1nc2c(ncn2[C@@H]2O[C@@H]3COP(=O)(S)OCCn4c(nc5cncnc54)COP(=O)(S)O[C@@H]2C3)c(=O)[nH]1 (single isomer, unassigned) [Example 22B] | 10 to 100 | 10 to 100 |  |
| Nc1nc2c(nnn2[C@@H]2O[C@@H]3COP(=O)(S)OCCn4c(nc5cncnc54)COP(=O)(S)O[C@@H]2[C@@H]3F)c(=O)[nH]1 (single isomer, unassigned) [Example 24B] | 10 to 100 | 10 to 100 |  |
| Nc1nc2c(ncn2[C@@H]2O[C@@H]3COP(=O)(S)OCCn4c(nc5c(=O)[nH]cnc54)COP(=O)(S)O[C@@H]2[C@@H]3F)c(=O)[nH]1 (single isomer, unassigned) [Example 3B] | 10 to 100 | 10 to 100 |  |
| Nc1nc2c(ncn2[C@@H]2O[C@@H]3COP(=O)(S)OCC(F)(F)Cn4c(nc5cncnc54)COP(=O)(S)O[C@@H]2[C@@H]3F)c(=O)[nH]1 (single isomer, unassigned) [Example 19C] | 1 to 9.99 | 10 to 100 |  |
| Nc1nc2c(ncn2[C@@H]2O[C@@H]3COP(=O)(S)OCCn4c(nc5cnc(C6CC6)nc54)COP(=O)(S)O[C@@H]2[C@@H]3F)c(=O)[nH]1 (single isomer, unassigned) [Example 12C] | 1 to 9.99 | 10 to 100 |  |
| Nc1nc2c(ncn2[C@@H]2O[C@@H]3COP(=O)(S)OCCn4nc(-c5ccncc5)nc4COP(=O)(S)O[C@@H]2[C@@H]3F)c(=O)[nH]1 (single isomer, unassigned) [Example 34B] | 10 to 100 | 10 to 100 |  |
| Nc1nc2c(nc3n2CCOP(=O)(S)OC[C@H]2O[C@@H](n4cnc5c(N)ncnc54)[C@H](OP(=O)(S)OC3)[C@@H]2F)c(=O)[nH]1 (stereo partly drawn) [Example 23B, (1S,21R,23R,24R)-11-Amino-23-(6-amino-9H-purin-9-yl)-24-fluoro-3,18-disulfanyl-2,4,17,19,22-pentaoxa-7,10,12,14-tetraaza-3lambda5,18lambda5-diphosphatetracyclo[19.2.1.06,14.08,13]tetracosa-6,8(13),11-triene-3,9,18-trione] | 10 to 100 | 10 to 100 | 1 to 9.99 |
| N#Cc1cnc2c(c1)nc1n2CCOP(=O)(S)OC[C@H]2O[C@@H](n3cnc4c(=O)[nH]c(N)nc43)[C@H](OP(=O)(S)OC1)[C@@H]2F (single isomer, unassigned) [Example 38C] | < 1 | < 1 |  |
